Data: ChEMBL document CHEMBL1125678, “Quinazolineacetic acids and related analogues as aldose reductase inhibitors” (J Med Chem, 1991)

Target: Aldo-keto reductase family 1 member B1 (Bos taurus, UniProt P16116)
Test: In vitro inhibition of aldose reductase in partially purified bovine lens preparation at a concentration of 10e -8M.

- IC50: 33 nM
Structure (SMILES): COc1ccc2c(C(=S)N(C)CC(=O)O)cccc2c1C(F)(F)F [TOLRESTAT]
